What was measured:
[1] = system: microphthalmia-associated transcription factor (MITF); assay: MITF expression by RT-PCR in α-MSH-treated cells; type: cell-based, mouse; details: α-MSH-treated melanocytes (B16F10)
[2] = system: B16F1 cells; assay: Screening of tranexamic acid-peptides: intracellular melanin production in α-MSH-treated melanocytes; type: cell-based, mouse; details: α-MSH 20 μg/mL, 3 days; for inhibitory effect against α-MSH compared with Arbutin and AA2G: 1-250 μg/mL; for α-MSH Inhibitory Ability (%): intracellular melanin at 490 nm, Control (No Treatment) = 100, test concentration not stated (1-250 μg/mL tested)
Description: B16F1 cells, which are mouse melanocytes, were cultured in Dulbecco's modified Eagle's media (DMEM, Sigma), to which 10% fetal bovine serum (FBS, Sigma) was added, under 37° C. CO2 conditions. The cells were cultured in a 24-well plate at a concentration of 1×10^5 cells/well, and the attachment of cells was confirmed. Then, the control group was not treated with anything but only a solvent was added thereto, whereas a-MSH (20 μg/mL) was added to the positive control group. The remaining dishes were treated with α-MSH (20 μg/mL), 40 kinds of tranexamic acid-peptides, and the control group with Arbutin and AA2G, to a concentration of 1 μg/mL, 10 μg/mL, 100 μg/mL, and 250 μg/mL, respectively. Test materials were added to each dish and cultured for 3 days. After 3 days, the culture was removed by centrifugation, and the cells were lysed and intracellular melanin was collected, and observed at 490 nm to measure the amount of intracellular melanin production.
40 kinds of tranexamic acid-peptides were treated according to concentration, and their inhibitory effect against melanin production was measured.

[3] = system: skin pigmentation (melanin index); assay: Clinical test of creams: skin pigmentation by Mexameter; type: in vivo, human; details: 2 times a day
Text: In particular, a cream containing tranexamic acid was used as the positive control group and the standard base cream was used as the negative control group.
The face of each subject was divided into two parts vertically and the two kinds of creams prepared above were applied to each face. The subjects were required to continuously use the creams in the morning and evening, 2 times a day for 8 weeks after washing the face.
For the objective evaluation of changes in skin pigmentation before and after the use of the creams, the changes in pigmentation were measured using the Mexameter (CK, Germany) before the use of the creams, 2 weeks, 4 weeks, 6 weeks, and 8 weeks after the use of the creams.
As a result of the above experiment, the tranexamic acid-dipeptide with a greater effect between the two kinds of tranexamic acid-dipeptides, was selected and, as an attempt to reduce the content in the cream, a cream containing 0.5% tranexamic acid-dipeptide was prepared. Ten women subjects were collected and the 8-week clinical experiment was performed in the same manner as described above.

[4] = system: mouse melanocytes; assay: Whitening effect: melanin production in α-MSH-treated melanocytes by visual inspection; type: cell-based; details: α-MSH 20 μg/mL, 1-250 μg/mL, 3 days
Description: According to a preferred embodiment of the present invention, the peptides of the present invention […] the melanin production in a concentration-dependent manner. […] Additionally, when cells were treated with 4 kinds of the tranexamic acid-peptides; the peptides, to which tranexamic acid was not bound; Arbutin; and AA2G at various concentrations (1μ, 10μ, 100μ, and 250μ), cultured for 3 days, and the absorbance of the cultures were measured at 490 nm and analyzed.
Tranexamic acid-peptides were treated according to concentration and their inhibitory effect against melanin production was measured. The mouse melanocytes were cultured in Dulbecco's modified Eagle's media (DMEM, Sigma) containing 10% fetal bovine serum ([…], Sigma) under 37° C. CO2 conditions.
The cells were cultured in a 24-well plate at a concentration of 1×10^5 cells/well, and the attachment of cells was confirmed. Then, the control group was not treated with anything but only a solvent was added thereto, whereas a-MSH ([…]) was added to the positive control group. The remaining dishes were treated with α-MSH (20 μg/mL), 4 kinds of tranexamic acid-peptides, and the control group with Arbutin and AA2G, to a concentration of 1 μg/mL, 10 μg/mL, 100 μg/mL, and 250μ), respectively. Test materials were added to each dish and cultured for 3 days. […]

[5] = 54 women, creams with 1% tranexamic acid-dipeptide or tranexamic acid

| Substance | expression of MITF (mRNA) [1] | inhibitory effect against α-MSH compared with Arbutin and AA2G [2] | α-MSH Inhibitory Ability (%) [2] [%] | decrease of the melanin index after 8 weeks [3, 5] [%] | amount of melanin production by visual inspection [4] | decrease of the melanin index after 8 weeks ([3]; ten women, cream with 0.5% tranexamic acid-dipeptide or tranexamic acid) [%] |
| --- | --- | --- | --- | --- | --- | --- |
| Tranexamil-AP [Dipeptide-3 AP] | inhibited the expression of the gene (MITF) | superior to Arbutin and AA2G | 41 | – | – | – |
| Tranexamil-PS [Dipeptide-27 PS] | inhibited the expression of the gene (MITF) | superior to Arbutin and AA2G | 28 | 183.2 | decreased in a concentration-dependent manner | – |
| Tranexamil-VS [Dipeptide-23 VS] | inhibited the expression of the gene (MITF) | superior to Arbutin and AA2G | 24 | 22.9 | – | 23.9 |

Source: patent US10532018B2, “Method of whitening skin using tranexamic acid-peptide having skin whitening activity” (ANPEP INC., priority 2016, dated 2020)
